This is a sample that favours compounds with a hit; in the whole collection about 0.42% have one here.
Vif-A3G inh = Vif-A3G binding inhibition; Q9HC16; HeLa A3G-eYFP + Vif (tagged APOBEC3G with the HIV-1 protein that degrades it), YFP fluorescence, overnight; Potency, µM (titrated, usually from 46.1 µM), inactives show at the highest dose activity, negative = active, usual class: inhibitors; actives 0.076% (n = 410,000); AID 602310; also: % is scaled to controls: 0 for no effect and ±100 for the full control effect; nearly all actives have a fitted effect of over 60% in size
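HeLa cells stably expressing Vif and C-terminally eYFP-tagged A3G, seeded overnight at 37 deg C, then exposed to compound by pintool overnight at 37 deg C. Rise in yellow fluorescence (Ex 488/Em 500-530, Acumen) marks blocked Vif-driven A3G degradation.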
Rango complex inh = Rango-importin beta binding inhibition | Q14974 | Rango CFP/YFP FRET sensor + importin beta, 45 min | Potency, µM (series often up to 92.2 µM), for the others: top-dose inhibition of complex formation | actives 0.031% (n = 340,000); calls by dose curve;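 also: 0% = DMSO wells and 100% = buffer wells lacking importin beta; nearly all actives have a fitted effect of over 15% in size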
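Inhibition scored from the CFP 486 nm/YFP 530 nm FRET ratio 45 min after adding 0.125 microM importin beta to 50 nM Rango biosensor preincubated 5 min with compound (room temperature, PBS with DTT, Tween-20, BSA). No-importin wells as positive control.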
Vif-A3F inh = blocks the Vif interaction with APOBEC3F; HeLa A3F-eYFP + Vif (tagged APOBEC3F with the HIV-1 protein that degrades it), YFP fluorescence increase; actives 0.2% (n = 390,000); Potency, µM (highest dose often 46.1 µM), inactives show at the highest dose activity, negative = active; AID 602313; also: % of control where 0% means no effect; nearly all actives have a fitted effect of over 65% in size
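Fluorescence increase (Ex 488/Em 500-530) after overnight compound treatment at 37 deg C flags inhibition of Vif-driven A3F-eYFP loss in stable HeLa A3F-eYFP/Vif cells seeded overnight beforehand.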
Epigenetic reg = regulators of epigenetic silencing causing reporter derepression in mouse cells. actives 0.2% (n = 280,000). Potency, µM (series often up to 53.9 µM), without a hit: top-dose GFP activation, hits mostly activators. AID 1865. murine LDR cells, GFP reporter derepression, 30 h; also: % of control where 0% means no effect; nearly all actives have a fitted effect of over 60% in size
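Murine LDR cells bearing a silenced CMV-driven GFP reporter were exposed to compound for 30 h at 37 C. After PBS washes, GFP-positive cells (20-120 um objects) counted by laser-scanning microplate cytometry.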
Rango release inh = prevents RanGTP from dissociating the Rango-importin beta complex; O95149+P62826; Biochemical FRET Rango-importin beta, RanGTP-induced dissociation; Potency, µM (top dose mostly 46.1 µM), without a hit: top-dose activity change, negative = inhibition; actives 0.071% (n = 340,000); AID 540253; calls by dose curve; also: % of control where 0% means no effect; nearly all actives have a fitted effect of over 45% in size
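Rango FRET biosensor (snurportin-1 IBB flanked by N-terminal EYFP and C-terminal CFP10) at 0.1 uM, with 0.25 uM importin beta in PBS, 1mM DTT, 0.02% Tween-20, 0.1% BSA. 0.6 uM Ran, 2mM GTP and 0.2 uM RCC1 were then added for 45 min at room temperature. Inhibition read as loss of FRET rise.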
An asterisk follows results filed as active; i = inactive; ? = inconclusive; / = not tested or not shown. Unless noted, calls follow the shape of the dose curve; as a rule, active = well fitted curve in the direction sought with a large enough effect; inconclusive = small, poorly fitted or top-dose-only effect, or another doubt; inactive = no such curve, though single readings can be large; an effect the other way counts as inactive or inconclusive. Potency is read from the fitted curve at half-maximal effect.

no.	smiles	Epigenetic reg	Vif-A3F inh	Vif-A3G inh
1	O=S(=O)(c1ccc2c(c1)CCCC2)N1CCN(c2nc(-c3cccs3)nc3ccccc23)CC1	/	/	2%
2	COc1cccc(C(=O)/C=C/Nc2ccc(S(=O)(=O)Nc3cnc4ccccc4n3)cc2)c1	0%	0%	-18%
3	O=C(/C=C/Nc1ccc(S(=O)(=O)Nc2cnc3ccccc3n2)cc1)c1ccccc1	2%	8%	0%
4	CCOC(=O)c1cc2c(=O)n3ccccc3nc2n(CCCOC)c1=NC(=O)c1cc2ccccc2o1	0%	2%	-1%
5	COc1ccc(-c2ccc(-c3noc(-c4ccccc4)n3)c(OC)n2)cc1	1%	-1%	1%
6	Cc1cc(C(=O)N2CCN(c3cccc(C)c3C)CC2)c2c(C)nn(-c3ccccc3)c2n1	-1%	-6%	3%
7	Cc1ccc(NC(=O)c2c(C)nc3sc(C(=O)Nc4ccc(F)cc4)c(N)c3c2-c2ccc(C)o2)c(C)c1	22µM*	?	?
8	COc1ccccc1NC(=O)c1sc2nc(C)c(C(=O)Nc3ccc(C)cc3C)c(-c3ccc(C)o3)c2c1N	10%	1%	-4%
9	COc1ccccc1NC(=O)c1sc2nc(C)c(C(=O)Nc3ccc(C)cc3C)c(-c3ccco3)c2c1N	8.9µM*	?	-12%
10	CC(=O)c1ccc(-c2cccc(C3C4C=CCCC4(C)C(=O)N3Cc3ccccc3)c2)cc1 (stereo not given)	/	/	-6%

no.	Rango release inh	Rango complex inh
1	/	/
2	?	?
3	8.2µM*	?
4	/	/
5	2.1µM*	?
6	/	/
7	/	/
8	/	/
9	/	/
10	/	/

Next section:
no.	smiles	Epigenetic reg	Vif-A3F inh	Vif-A3G inh
11	CN(C)c1ccc(/C=N/N(CCO)C2=NS(=O)(=O)c3ccccc32)cc1	/	22µM*	5%
12	O=S1(=O)N=C(N(CCO)/N=C/c2ccc(Cl)cc2)c2ccccc21	/	-8%	-1%
13	COc1ccc2[nH]cc(C=O)c2c1	3%	2%	1%
14	COc1ccc2[nH]cc(/C=C/c3cc[n+](C)cc3)c2c1	/	13µM*	11µM*
15	Cc1cccc2cc3c(N)c(C(=O)N4CCOCC4)sc3nc12	1%	22µM*	?
16	CCC(C)N1C(=O)/C(=C/c2c(NCCCOC(C)C)nc3c(C)cccn3c2=O)SC1=S (stereo not given)	3.2µM*	i	?
17	Cc1ccc(N2C(=O)[C@@H]3[C@H](C2=O)[C@H]2C=C(C(=O)c4ccccc4)C=CN2[C@@H]3C(=O)c2ccc(Cl)cc2)cc1	0%	11µM*	-15%
18	O=C(C1=C[C@@H]2[C@H]3C(=O)N(c4cccc(Cl)c4)C(=O)[C@H]3[C@@H](C(=O)c3ccc(Cl)cc3)N2C=C1)c1ccccc1	0%	-26%	-19%
19	O=C(Nc1nc2n(n1)C(c1ccc(F)cc1)C=C(c1ccc(Cl)cc1)N2)c1ccc([N+](=O)[O-])cc1 (stereo not given)	0%	0%	5%
20	CNc1sc(C(=O)c2cccs2)c(N)c1-c1nc2ccccc2s1	9%	-15%	-5%

no.	Rango release inh	Rango complex inh
11	?	?
12	5%	4%
13	9%	2%
14	?	1%
15	?	?
16	?	?
17	0%	-1%
18	?	?
19	/	/
20	10µM*	?

Going on with the list.
no.	smiles	Epigenetic reg	Vif-A3F inh	Vif-A3G inh
21	CNc1sc(C(=O)c2ccc(F)cc2)c(N)c1-c1nc2ccccc2s1	1%	0%	0%
22	COc1ccc2c(C)cc(SCC(=O)N3CCOCC3)nc2c1	8%	25µM*	?
23	COc1ccc2c(C)cc(SCC(=O)NC3CCCCC3)nc2c1	/	?	-3%
24	CCCCN1CC(c2nc3ccccc3n2CCCCOc2cccc(C)c2C)CC1=O (stereo not given)	-4%	-5%	0%
25	CC1CC(=O)C2=C(C1)OC(N)=C(C#N)C2c1coc2ccccc2c1=O (stereo not given)	0%	11µM*	-15%
26	CC1(C)CC(=O)C2=C(C1)OC(N)=C(C#N)C2c1ccccc1 (stereo not given)	-3%	0%	-5%
27	c1ccc(C2=NN(c3ccccc3)CC2)cc1	-5%	13%	1%
28	c1ccc(N=NC2=NN(c3ccccc3)CS2)cc1	/	4µM*	3%

no.	Rango release inh	Rango complex inh
21	-1%	?
22	-8%	33µM*
23	0%	2%
24	/	/
25	-17%	?
26	13%	-2%
27	-30%	?
28	/	/

Reprinted: entries 26–28
no.	smiles	Epigenetic reg	Vif-A3F inh	Vif-A3G inh
26	CC1(C)CC(=O)C2=C(C1)OC(N)=C(C#N)C2c1ccccc1 (stereo not given)	-3%	0%	-5%
27	c1ccc(C2=NN(c3ccccc3)CC2)cc1	-5%	13%	1%
28	c1ccc(N=NC2=NN(c3ccccc3)CS2)cc1	/	4µM*	3%

no.	Rango release inh	Rango complex inh
26	13%	-2%
27	-30%	?
28	/	/
